Assay [1] addresses Avi-KRAS WT (2-169) GTP/RAF1 RBD-3xFLAG (51-131) (Homo sapiens, UniProt P01116). The assay can be described thus: Raf1-KRAS WT-GTP disruption HTRF assay (Biological Example 3). Particulars: read-out: Raf1-GTP-KRAS WT disruption, GTP-loaded. Here is the method:
Biological Example 3: Disrupting RAS-Effector Binding HTRF Assay
A protein:protein interaction (PPI) Homogeneous Time Resolved Fluorescence (HTRF) assay was used to determine the effectiveness of compounds in disrupting KRAS protein and effector (RAF1) binding.
The HTRF assay used the following reagents and proteins: (i) 50 nM Avi-KRAS G12D (2-169) GTP/RAF1 RBD-3xFLAG (51-131): (ii) 50 nM Avi-KRAS G12C (2-169) GTP/RAF1 RBD-3xFLAG (51-131): (iii) 50 nM Avi-KRAS G12V (2-169) GTP/RAF1 RBD-3xFLAG (51-131); (iv) 50 nM Avi-KRAS WT (2-169) GTP/RAF1 RBD-3xFLAG (51-131); and (v) 75 nM 3xFLAG-RAF1 RBD (51-131)-Avi. The assay buffer included: 50 mM Tris pH 7.5 (Invitrogen, 15567-027), 100 mM NaCl (Sigma, S5150-IL), 5 mM MgCl2 (Sigma, 63069), 0.1% BSA (Sigma, A7030), 0.01% Tween 20 (Sigma, P7949), 10% DMSO (Cell Signaling, 12611). The bead buffer included: 50 mM Tris pH 7.5 (Invitrogen, 15567-027), 0.01% Tween 20 (Sigma, P7949). An assay volume of 20 μL was used in a 384 well plate-low volume format. Compound titration: 30-0.005 μM, 3x dilution series.
The HTRF assay employed the following protocol: […]
Plates were analyzed on an Envision plate reader using the following setting: Excitation 320 nm, Bandwidth 75 nm; Emission 615 nm, Bandwidth 85 nm; Gain 100%; Flashes 100; Lag 60 μs. […] Data was plotted and analyzed using Prism 8. […]
(TR-FRET usually uses a lanthanide donor and a delayed reading to cut background.)

By UniProt entry, the sequences of proteins in these tests, tags left out. Residues count along the entry.
UniProt P01116, 2-169 isoform 2 limits assumed: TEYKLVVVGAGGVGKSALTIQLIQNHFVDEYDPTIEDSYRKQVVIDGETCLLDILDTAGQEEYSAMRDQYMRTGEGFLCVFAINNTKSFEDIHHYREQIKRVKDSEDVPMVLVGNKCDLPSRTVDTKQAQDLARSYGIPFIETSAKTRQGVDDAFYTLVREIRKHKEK

Assay [2] relates to SW1900 cells (KRAS G12D). The assay can be described thus: Cell-based pERK HTRF assay in SW1900 cells (Biological Example 5). The note with it: read-out: SW1990 pERK HTRF IC50; SW1990 cells (text: SW1900, KRAS G12D). Here is the method: (§1) Biological Example 5: Cell-based PERK HTRF assay in AsPC-1, SW1900, HPAC, Capan-2, RKN, H358, HCT116, KP-2, H1573, A549, MKN1, and HT1080 cells
(§2) The inhibition of ERK phosphorylation, as measured using the HTRF Advanced Phospho-ERK 1/2 (Thr202/Tyr204) Detection Assay kit (Perkin Elmer), was used to determine the effectiveness of test compounds in disrupting KRAS-driven protein/effector signaling in cells.
(§3) On day 1, cells were seeded into 96-well plates at 2.5×10^4 cells/well in 100 μL of complete growth media supplemented with 10% fetal bovine serum (FBS) and incubated at 37° C., in the presence of 5% CO2.
(§4) On day 2, cells were treated with compounds diluted in DMSO at 0.25% final DMSO concentration. Compounds were dosed in a 9-point concentration curve with three-fold dilution between concentrations. Cells were incubated in the presence of compound for two hours at 37° C. […]
(§5) Following this incubation period, plates were centrifuged at 500×g for one minute and analyzed on a CLARIOstar plate reader. Data was imported into Microsoft Excel and the signal from the 665 nm channel was divided by the signal from the 620 nm channel. % pERK was calculated as: […]
(§6) Data was imported to the Prism software package (Graphpad) and EC50 values were calculated using the log (inhibitor) vs, response—variable slopc (Four parameters) model.

Assay [3] has as its system RKN cells (KRAS G12V). The assay can be described thus: Cell-based pERK HTRF assay in RKN cells (Biological Example 5). The note with it: read-out: RKN pERK HTRF IC50. Here is the method: as §1, §2, §3, §4, §5, §6
Another assay has as its system AsPC-1 cells (KRAS G12D). The assay can be described thus: 3D Cell viability assay in AsPC-1 cells (Biological Example 6). Particulars: read-out: AsPC-1 3D cell viability IC50; AsPC-1 (KRAS G12D) spheroids, 72 hours. As for the experimental part:
(§7) Biological Example 6: 3D Cell viability assay in AsPC-1, SW1900, HPAC, Capan-2, RKN, H358, HCT116, KP-2, H1573, A549, MKN1, and HT1080 cells
(§8) The inhibition of cellular viability as a result of test compound treatment in a spheroid assay was measured using the CellTiter-Glow 3D Cell Viability Assay (Promega).
(§9) On Day 1, 1000 cells per well were seeded in 150 μL of complete growth media supplemented with 10% fetal bovine serum (FBS) and incubated at 37° C., in the presence of 5% CO2 in 96-well ultra-low attachment microplates (Corning) for 48 hours undisturbed to allow spheroids to form.
(§10) Following spheroid formation, cells were treated with compounds diluted in DMSO at 0.25% final DMSO concentration. Compounds were dosed in a 9-point concentration curve with three-fold dilution between concentrations. […]
(§11) Following this incubation period, the kit-provided CTG reagent was allowed to equilibrate for 30 minutes at room temperature, 150 μL of equilibrated CTG reagent was added to each well, and the plate was sealed before shaking at 250 rpm for 10 minutes at room temperature to lyse the cells, 150 μL of lysate per well was transferred to a 96-well plate and luminescence was read on a CLARIOstar plate reader.
(§12) Data was imported into the Prism software package (Graphpad) and EC50 values were calculated using the log (inhibitor) vs, response—variable slope (Four parameters) model.

In assay [4] the test system is SW1900 cells (KRAS G12D). In words: 3D Cell viability assay in SW1900 cells (Biological Example 6). The note with it: read-out: SW1990 3D cell viability IC50; SW1990 (text: SW1900, KRAS G12D) spheroids, 72 hours. As for the experimental part:
as §7, §8, §9, §10, §11, §12

The subject of assay [5] is RKN cells (KRAS G12V). In words: 3D Cell viability assay in RKN cells (Biological Example 6). Particulars: read-out: RKN 3D cell viability IC50; RKN (KRAS G12V) spheroids, 72 hours. As for the experimental part: as §7, §8, §9, §10, §11, §12

Take `CCN(c1nc(OC[C@@]23CCCN2C[C@H](F)C3)nc2c(F)c(-c3ccc(F)c4sc(N)c(C#N)c34)c(C(F)(F)F)cc12)[C@H]1CCN(C(=O)OC2COC2)C1`: the IC50 is 100 to 1000 nM in assay [1]; < 100 nM in the assay with SW1900 cells (KRAS G12D) [2]; < 100 nM in the assay on RKN cells (KRAS G12V) [3]; < 100 nM in the assay on AsPC-1 cells (KRAS G12D); < 100 nM in the assay on SW1900 cells (KRAS G12D) [4]; < 100 nM in the assay with RKN cells (KRAS G12V) [5].

The values above are taken from patent publication US20260042764A1, “COMPOSITIONS AND METHODS FOR INHIBITION OF KRAS” (TheRas, Inc., priority 2022, published 2026).
